Read-outs that look alike come from different tables or passages of the source.
Protocol: A series concentration mixed reference solution with different concentrations was added to 100 μL plasma, and was treated according to the method under Section 4.6 to obtain the matrix standard curve sample. Samples with concentrations of 400, 100, and 10 ng/mL, respectively, were taken as quality control (QC) samples of high, medium, and low concentrations (HQC, MQC, LQC). The method was validated, including linearity, inter-day/intra-day precision, repeatability, stability, extraction recovery, and matrix effect, according to FDA bioanalytical method validation guidelines.

SMILES: O=C(O)c1cc(O)c(O)c(O)c1 [Gallic Acid, gallic acid]
- Stability RE (%) (rat plasma, −80 °C, 10 days, spiked 50 ng/mL, n = 6): 98.31%

SMILES: OC[C@H]1O[C@@H](OCCc2ccc(O)cc2)[C@H](O)[C@@H](O)[C@@H]1O [Salidroside, salidroside]
- Stability RE (%) (rat, 50 ng/mL): 101.3%

From article PMC11124525, “Pharmacokinetic–Pharmacodynamic Correlation Analysis of Rhodiola crenulata in Rats with Myocardial Ischemia” (Pharmaceuticals, 2024)
